The results in this text go back to US20240024488A1, “COMPOUNDS AND USES THEREOF” (Foghorn Therapeutics Inc., priority 2020, published 2024).

Sequences of proteins named here, by UniProt entry; tags and fusion partners are left off.
UniProt P51531, whole entry: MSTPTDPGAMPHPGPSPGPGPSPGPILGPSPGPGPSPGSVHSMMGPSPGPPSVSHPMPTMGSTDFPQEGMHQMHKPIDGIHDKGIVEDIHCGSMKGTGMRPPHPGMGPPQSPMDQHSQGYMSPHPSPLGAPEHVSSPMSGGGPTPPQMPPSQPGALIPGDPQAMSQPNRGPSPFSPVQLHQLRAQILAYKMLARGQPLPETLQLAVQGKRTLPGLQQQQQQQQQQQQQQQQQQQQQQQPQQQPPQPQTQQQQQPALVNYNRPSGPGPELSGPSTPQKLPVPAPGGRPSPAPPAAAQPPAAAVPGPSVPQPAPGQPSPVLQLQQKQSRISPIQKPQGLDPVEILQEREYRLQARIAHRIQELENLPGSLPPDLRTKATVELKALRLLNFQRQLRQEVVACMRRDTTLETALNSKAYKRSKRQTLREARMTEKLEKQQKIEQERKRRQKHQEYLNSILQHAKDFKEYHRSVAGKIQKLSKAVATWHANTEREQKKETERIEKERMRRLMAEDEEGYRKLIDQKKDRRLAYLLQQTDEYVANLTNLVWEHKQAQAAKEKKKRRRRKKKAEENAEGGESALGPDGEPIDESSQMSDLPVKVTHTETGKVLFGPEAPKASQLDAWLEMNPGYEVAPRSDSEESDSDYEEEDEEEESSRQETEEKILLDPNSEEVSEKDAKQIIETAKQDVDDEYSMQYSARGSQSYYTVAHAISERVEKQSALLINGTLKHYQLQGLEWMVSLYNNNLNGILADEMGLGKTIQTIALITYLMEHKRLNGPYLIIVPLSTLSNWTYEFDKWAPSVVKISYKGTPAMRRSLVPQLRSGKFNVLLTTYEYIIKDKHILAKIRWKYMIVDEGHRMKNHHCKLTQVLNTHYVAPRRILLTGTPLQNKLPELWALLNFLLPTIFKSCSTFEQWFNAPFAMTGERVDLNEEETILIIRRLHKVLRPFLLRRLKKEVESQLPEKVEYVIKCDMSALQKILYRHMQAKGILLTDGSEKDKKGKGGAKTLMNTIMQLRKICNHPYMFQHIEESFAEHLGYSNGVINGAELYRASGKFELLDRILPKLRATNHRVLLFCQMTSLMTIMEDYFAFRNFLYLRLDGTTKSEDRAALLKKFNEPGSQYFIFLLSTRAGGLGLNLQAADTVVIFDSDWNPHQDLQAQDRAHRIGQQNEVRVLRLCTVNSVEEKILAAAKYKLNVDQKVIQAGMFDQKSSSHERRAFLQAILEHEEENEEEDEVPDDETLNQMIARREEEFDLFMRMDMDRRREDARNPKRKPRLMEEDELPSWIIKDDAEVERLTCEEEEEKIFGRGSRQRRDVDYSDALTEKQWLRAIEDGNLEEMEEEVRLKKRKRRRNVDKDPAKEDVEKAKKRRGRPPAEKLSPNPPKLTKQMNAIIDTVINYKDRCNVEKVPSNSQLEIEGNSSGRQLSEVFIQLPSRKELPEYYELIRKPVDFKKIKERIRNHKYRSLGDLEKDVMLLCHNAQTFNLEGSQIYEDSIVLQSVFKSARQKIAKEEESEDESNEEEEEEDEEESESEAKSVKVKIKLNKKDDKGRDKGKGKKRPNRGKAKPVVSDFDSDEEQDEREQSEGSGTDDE
UniProt P51532, whole entry: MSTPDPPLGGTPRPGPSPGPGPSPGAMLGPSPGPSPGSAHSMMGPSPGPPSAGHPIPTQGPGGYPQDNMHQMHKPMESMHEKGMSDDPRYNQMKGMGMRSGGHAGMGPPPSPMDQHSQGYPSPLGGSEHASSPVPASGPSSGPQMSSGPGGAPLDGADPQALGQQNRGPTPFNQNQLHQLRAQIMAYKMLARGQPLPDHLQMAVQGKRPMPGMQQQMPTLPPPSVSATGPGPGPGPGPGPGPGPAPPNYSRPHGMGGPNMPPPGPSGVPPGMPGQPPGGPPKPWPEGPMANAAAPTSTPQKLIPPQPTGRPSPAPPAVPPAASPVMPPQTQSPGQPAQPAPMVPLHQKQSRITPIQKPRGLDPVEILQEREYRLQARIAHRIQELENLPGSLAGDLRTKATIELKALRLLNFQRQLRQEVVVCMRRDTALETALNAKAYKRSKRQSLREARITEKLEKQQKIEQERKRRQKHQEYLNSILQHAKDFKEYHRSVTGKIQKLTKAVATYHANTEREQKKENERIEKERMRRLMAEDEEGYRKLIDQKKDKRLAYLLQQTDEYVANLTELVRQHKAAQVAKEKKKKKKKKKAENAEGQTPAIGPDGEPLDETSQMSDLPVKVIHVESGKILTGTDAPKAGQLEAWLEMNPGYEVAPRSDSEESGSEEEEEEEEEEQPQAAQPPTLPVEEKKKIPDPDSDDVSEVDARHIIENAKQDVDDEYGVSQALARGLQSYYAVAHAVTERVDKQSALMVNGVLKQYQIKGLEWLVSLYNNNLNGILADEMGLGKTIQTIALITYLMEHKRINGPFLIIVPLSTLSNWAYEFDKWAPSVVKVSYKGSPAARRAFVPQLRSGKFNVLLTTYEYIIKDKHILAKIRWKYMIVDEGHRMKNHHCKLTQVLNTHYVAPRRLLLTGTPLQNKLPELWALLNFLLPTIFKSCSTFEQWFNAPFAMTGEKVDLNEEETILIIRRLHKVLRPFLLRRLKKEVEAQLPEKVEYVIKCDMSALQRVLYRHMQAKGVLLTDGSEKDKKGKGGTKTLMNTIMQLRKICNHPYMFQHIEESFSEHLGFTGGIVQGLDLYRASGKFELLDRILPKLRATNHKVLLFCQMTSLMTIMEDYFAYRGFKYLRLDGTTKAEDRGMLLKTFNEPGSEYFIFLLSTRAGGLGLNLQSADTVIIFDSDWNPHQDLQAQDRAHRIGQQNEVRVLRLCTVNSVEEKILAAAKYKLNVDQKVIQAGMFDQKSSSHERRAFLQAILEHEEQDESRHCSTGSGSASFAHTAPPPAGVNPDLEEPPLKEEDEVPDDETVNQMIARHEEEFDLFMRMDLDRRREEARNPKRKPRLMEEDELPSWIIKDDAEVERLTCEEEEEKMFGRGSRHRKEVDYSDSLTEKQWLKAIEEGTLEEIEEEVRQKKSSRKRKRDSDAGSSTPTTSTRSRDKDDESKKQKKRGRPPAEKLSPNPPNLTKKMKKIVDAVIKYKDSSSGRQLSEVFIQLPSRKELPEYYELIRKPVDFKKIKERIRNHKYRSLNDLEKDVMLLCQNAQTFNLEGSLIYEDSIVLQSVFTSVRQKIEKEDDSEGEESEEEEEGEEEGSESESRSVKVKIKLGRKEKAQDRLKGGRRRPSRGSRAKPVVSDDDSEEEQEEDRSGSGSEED

One assay addresses HiBit-BRM fusion protein (Homo sapiens, UniProt P51531). In words: HiBiT-BRM cell-based degradation assay (Nano-Glo HiBiT Lytic Detection, 24 h). The conditions noted are these: for BRM HiBit Degradation Maximum (%): HeLa cell line expressing HiBiT-BRM; for IC50: read-out: BRM HiBit Degradation IC50, HeLa cell line expressing HiBiT-BRM.
The target in assay [1] is HiBit-BRG1 fusion protein (Homo sapiens, UniProt P51532). In words: HiBiT-BRG1 cell-based degradation assay (Nano-Glo HiBiT Lytic Detection, 24 h). The conditions noted are these: for BRG1 HiBit Degradation Maximum (%): HeLa cell line expressing HiBit-BRG1 and LgBit; for IC50: read-out: BRMG1 HiBit Degradation IC50, HeLa cell line expressing HiBit-BRG1 and LgBit. Background: The HiBiT peptide binds its large partner to form an active luciferase.

Usually IC50 stands for the point on the concentration scale where inhibition reaches its midpoint. For the compound `Cc1ncsc1-c1ccc([C@H](C)NC(=O)[C@@H]2C[C@@H](O)CN2C(=O)[C@@H](c2cc(OCCN3C[C@H]4C[C@H](c5c(C)[nH]c6nnc(-c7ccccc7O)cc56)C[C@H]4C3)no2)C(C)C)cc1`, on HiBit-BRM fusion protein, the “BRM HiBit Degradation Maximum (%)” value is reported as “A (“A” indicates maximum degradation ≥ 75%)” and the IC50 was below 10 nM. Besides, in assay [1], the “BRG1 HiBit Degradation Maximum (%)” value is reported as “B (“B” indicates maximum degradation ≥ 50%)” and the concentration for half-maximal inhibition (IC50) was above 10 nM.
Regarding `Cc1ncsc1-c1ccc([C@H](C)NC(=O)[C@@H]2C[C@@H](O)CN2C(=O)[C@@H](c2cc(N3CCC(N[C@@H]4CCc5[nH]c6nnc(-c7ccccc7O)cc6c5C4)CC3)no2)C(C)C)cc1`, at HiBit-BRM fusion protein, the “BRM HiBit Degradation Maximum (%)” value is “A (“A” indicates maximum degradation ≥ 75%)” and the IC50 is above 100 nM. Further, in assay [1], the “BRG1 HiBit Degradation Maximum (%)” value is reported as “C (“C” indicates maximum degradation < 50%)”.
`Cc1ncsc1-c1ccc([C@H](C)NC(=O)[C@@H]2C[C@@H](O)CN2C(=O)[C@@H](c2cc(N3CCC(N[C@H]4CCc5[nH]c6nnc(-c7ccccc7O)cc6c5C4)CC3)no2)C(C)C)cc1`: at HiBit-BRM fusion protein, the “BRM HiBit Degradation Maximum (%)” value was “A (“A” indicates maximum degradation ≥ 75%)” and the IC50 was above 100 nM. In assay [1], the “BRG1 HiBit Degradation Maximum (%)” value is on record as “B (“B” indicates maximum degradation ≥ 50%)” and the IC50 is above 100 nM.
